From ChEMBL document CHEMBL1135002, “Optimization of a pyrazolo[1,5-a]pyrimidine class of KDR kinase inhibitors: improvements in physical properties enhance cellular activity and pharmacokinetics” (Bioorg Med Chem Lett, 2002)

Amino acid sequences for entries named in this document (tags omitted). A change or cut given only in a name is not applied to a line headed by its entry.
UniProt P17948: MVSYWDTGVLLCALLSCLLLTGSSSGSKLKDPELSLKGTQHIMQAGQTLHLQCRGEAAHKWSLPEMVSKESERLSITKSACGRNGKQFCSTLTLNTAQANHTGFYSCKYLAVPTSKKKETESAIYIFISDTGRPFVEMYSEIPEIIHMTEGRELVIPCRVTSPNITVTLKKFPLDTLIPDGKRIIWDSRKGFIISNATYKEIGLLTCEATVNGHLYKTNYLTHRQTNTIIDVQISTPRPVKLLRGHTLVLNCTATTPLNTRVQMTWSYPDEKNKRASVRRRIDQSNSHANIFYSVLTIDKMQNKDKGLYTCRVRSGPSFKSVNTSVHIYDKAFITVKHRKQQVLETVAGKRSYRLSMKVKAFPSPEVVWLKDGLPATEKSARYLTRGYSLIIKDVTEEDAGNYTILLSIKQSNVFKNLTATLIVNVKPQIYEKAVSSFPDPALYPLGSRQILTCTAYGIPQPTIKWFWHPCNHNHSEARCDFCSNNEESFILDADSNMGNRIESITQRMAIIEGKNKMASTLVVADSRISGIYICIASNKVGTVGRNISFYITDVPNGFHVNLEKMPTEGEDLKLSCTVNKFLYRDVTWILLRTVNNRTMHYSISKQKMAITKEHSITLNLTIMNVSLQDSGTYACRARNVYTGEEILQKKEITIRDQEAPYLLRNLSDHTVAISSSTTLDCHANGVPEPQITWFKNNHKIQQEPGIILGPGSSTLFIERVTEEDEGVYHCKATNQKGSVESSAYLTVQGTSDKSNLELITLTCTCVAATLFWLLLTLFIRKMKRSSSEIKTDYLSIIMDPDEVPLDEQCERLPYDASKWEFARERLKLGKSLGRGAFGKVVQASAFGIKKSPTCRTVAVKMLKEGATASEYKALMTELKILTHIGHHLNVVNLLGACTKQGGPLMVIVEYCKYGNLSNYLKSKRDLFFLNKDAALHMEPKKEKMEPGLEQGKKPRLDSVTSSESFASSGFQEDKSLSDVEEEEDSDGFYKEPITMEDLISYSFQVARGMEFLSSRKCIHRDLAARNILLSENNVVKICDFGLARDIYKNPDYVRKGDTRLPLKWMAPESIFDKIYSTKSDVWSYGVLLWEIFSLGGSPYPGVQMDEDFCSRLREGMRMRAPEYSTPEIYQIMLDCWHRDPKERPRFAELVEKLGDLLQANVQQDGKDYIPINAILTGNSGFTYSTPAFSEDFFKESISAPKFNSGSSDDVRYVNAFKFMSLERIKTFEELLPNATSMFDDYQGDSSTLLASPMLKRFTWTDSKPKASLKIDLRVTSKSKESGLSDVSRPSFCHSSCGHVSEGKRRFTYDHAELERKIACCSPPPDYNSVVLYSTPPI
UniProt P35916: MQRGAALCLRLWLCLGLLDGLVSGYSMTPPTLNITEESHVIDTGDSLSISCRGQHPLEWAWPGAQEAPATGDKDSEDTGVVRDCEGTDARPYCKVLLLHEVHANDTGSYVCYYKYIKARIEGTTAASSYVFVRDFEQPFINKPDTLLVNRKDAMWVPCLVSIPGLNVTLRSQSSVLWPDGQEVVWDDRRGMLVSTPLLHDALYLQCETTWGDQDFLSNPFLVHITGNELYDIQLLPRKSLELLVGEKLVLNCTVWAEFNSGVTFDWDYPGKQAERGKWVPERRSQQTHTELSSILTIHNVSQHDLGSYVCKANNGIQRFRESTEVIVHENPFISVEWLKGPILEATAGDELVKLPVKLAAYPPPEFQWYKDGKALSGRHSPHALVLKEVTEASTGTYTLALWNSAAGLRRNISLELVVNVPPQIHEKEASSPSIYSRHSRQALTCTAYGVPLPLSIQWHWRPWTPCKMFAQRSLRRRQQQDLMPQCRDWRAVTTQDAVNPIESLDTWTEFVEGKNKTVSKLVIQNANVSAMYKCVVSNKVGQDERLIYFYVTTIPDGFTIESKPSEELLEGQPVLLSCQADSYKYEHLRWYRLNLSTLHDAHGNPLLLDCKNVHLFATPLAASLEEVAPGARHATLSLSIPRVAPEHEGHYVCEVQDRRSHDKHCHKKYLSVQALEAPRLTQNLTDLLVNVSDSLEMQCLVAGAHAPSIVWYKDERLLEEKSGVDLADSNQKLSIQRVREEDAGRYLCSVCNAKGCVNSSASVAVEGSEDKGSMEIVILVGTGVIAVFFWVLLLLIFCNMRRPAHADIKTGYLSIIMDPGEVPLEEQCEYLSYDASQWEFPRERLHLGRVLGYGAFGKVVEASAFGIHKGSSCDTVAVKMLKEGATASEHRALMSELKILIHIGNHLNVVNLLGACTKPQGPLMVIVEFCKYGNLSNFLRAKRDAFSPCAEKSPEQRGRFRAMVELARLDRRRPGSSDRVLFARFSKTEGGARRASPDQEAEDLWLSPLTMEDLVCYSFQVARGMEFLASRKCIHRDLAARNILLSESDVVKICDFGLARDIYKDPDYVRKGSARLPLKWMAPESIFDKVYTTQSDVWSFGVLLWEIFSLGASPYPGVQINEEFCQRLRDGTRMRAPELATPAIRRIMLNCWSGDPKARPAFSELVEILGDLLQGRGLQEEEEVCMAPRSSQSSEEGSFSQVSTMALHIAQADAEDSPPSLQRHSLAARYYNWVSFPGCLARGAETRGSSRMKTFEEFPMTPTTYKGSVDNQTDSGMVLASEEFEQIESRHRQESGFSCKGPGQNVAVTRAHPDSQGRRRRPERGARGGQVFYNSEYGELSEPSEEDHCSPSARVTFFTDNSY
UniProt P35968: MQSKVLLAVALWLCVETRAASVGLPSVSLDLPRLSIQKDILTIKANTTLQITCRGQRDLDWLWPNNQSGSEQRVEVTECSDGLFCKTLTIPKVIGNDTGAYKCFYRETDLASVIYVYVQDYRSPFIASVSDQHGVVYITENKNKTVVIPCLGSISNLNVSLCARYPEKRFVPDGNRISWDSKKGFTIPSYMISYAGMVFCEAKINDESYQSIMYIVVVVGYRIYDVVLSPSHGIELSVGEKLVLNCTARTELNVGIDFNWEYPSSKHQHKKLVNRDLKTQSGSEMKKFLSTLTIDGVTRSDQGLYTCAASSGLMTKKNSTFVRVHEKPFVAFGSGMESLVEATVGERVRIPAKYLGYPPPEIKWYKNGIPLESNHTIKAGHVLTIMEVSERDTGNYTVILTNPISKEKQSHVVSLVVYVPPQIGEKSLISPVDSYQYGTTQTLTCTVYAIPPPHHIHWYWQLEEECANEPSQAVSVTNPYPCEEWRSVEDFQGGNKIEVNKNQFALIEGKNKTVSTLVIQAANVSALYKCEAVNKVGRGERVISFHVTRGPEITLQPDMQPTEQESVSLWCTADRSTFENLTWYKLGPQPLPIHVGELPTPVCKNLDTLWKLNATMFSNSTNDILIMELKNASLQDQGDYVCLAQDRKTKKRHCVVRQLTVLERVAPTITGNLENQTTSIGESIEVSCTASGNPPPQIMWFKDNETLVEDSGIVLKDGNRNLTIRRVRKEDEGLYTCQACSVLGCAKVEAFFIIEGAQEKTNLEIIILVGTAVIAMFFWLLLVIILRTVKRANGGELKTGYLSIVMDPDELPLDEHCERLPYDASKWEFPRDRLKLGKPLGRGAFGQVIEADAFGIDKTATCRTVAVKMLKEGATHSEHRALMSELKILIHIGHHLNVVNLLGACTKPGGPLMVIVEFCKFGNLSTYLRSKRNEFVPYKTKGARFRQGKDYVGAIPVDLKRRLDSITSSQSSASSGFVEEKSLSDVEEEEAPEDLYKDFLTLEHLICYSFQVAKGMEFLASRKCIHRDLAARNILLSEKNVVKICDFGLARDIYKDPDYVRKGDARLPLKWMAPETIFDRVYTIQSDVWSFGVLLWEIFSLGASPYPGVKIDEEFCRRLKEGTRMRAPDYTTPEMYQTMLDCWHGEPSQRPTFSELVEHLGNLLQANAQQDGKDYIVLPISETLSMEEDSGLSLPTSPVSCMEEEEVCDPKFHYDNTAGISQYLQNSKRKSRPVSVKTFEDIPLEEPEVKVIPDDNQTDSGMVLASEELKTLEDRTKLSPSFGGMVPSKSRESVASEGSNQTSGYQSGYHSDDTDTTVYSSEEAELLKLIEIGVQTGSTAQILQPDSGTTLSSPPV

Molecular target: Vascular endothelial growth factor receptor (Homo sapiens, UniProt P17948+P35916+P35968)
Settings: endothelial cell

IC50: 387 nM
Compound: COc1ccc(-c2cnc3c(-c4ccsc4)cnn3c2)cc1
